Measured values taken from ChEMBL document CHEMBL3227974, “Multivariate analysis and quantitative structure-activity relationships. Inhibition of dihydrofolate reductase and thymidylate synthetase by quinazolines” (J Med Chem, 1979).

Tests used:
[1] = molecular target: T1, Dihydrofolate reductase (Homo sapiens) (UniProt P00374)
T1 sequence (whole entry): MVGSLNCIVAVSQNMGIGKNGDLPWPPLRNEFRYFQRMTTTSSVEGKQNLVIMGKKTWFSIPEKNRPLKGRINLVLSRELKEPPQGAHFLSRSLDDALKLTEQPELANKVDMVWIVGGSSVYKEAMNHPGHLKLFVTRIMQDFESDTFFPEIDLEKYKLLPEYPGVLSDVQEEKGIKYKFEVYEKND

[2] = molecular target: T2, Dihydrofolate reductase (Mus musculus) (UniProt P00375); assay: Inhibition of dihydrofolate reductase in mouse L1210R cells; assay type: cell-based
T2 sequence (whole entry): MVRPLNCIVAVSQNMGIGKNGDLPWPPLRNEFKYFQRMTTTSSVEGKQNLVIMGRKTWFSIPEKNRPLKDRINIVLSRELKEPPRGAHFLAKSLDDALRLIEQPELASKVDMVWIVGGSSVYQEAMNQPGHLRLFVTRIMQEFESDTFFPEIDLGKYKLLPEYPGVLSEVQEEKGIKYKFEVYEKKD

## CN(Cc1ccc2nc(N)nc(N)c2c1)c1ccc(C(=O)NC(CCC(=O)O)C(=O)O)cc1 (configuration not stated)
[1]
  log(1/I50): 8.41
[2]
  log(1/I50): 8.88
